Experimental data taken from patent publication US9139568B2 (Merck Patent GmbH, priority 2011, dated 2015).

Amino acid sequences for entries named in this document (tags omitted). Residues count along the entry.
UniProt P23443, 1-421 T412E: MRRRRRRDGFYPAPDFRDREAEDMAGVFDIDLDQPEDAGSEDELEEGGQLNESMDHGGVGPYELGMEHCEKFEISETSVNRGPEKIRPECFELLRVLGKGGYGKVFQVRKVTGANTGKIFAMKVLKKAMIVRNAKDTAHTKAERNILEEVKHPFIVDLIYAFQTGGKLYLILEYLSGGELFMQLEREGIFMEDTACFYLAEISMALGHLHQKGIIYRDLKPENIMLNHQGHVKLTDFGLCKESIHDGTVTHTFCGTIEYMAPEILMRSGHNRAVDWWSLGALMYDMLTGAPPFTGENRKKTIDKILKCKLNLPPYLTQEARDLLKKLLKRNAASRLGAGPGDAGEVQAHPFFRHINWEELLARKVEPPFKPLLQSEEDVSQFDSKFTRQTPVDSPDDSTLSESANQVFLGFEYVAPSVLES

Target: P70S6K (Homo sapiens (Human), UniProt P23443, T412E)
Experiment: P70S6K Enzyme Assay
Assay type: biochemical
Protocol: P70S6K inhibitor compounds are diluted and plated in 96 well plates. A reaction mixture including the following components is then added to the compound plate to initiate the enzyme reaction; P70S6K (3 nM, T412E mutant, Millipore) is mixed with 24 μM ATP in an assay buffer containing 100 mM Hepes (pH 7.5), 5 mM MgCl2, 1 mM DTT, 0.015% Brij and 1 μM of the substrate peptide FITC-AHA-AKRRRLSSLRA-OH (derived from the S6 ribosomal protein sequence, FITC=fluorescein isothiocyanate, AHA=6-aminohexanoic acid). The reaction is incubated for 90 min at 25° C., before the addition of 10 mM EDTA to stop the reaction. The proportion of substrate and product (phosphorylated) peptide is analysed on a Caliper Life Sciences Lab Chip 3000, using a pressure of −1.4 psi, and upstream and downstream voltages of −3000 and −700 respectively. Product peaks are resolved before substrate peaks on the resulting chromatograms.

## NC(=O)c1ccc(NCc2cccc(F)c2)c2cccnc12 [Example 33, 5-(3-Fluorobenzylamino)-quinoline-8-carboxamide]
  IC50: 369 nM
